# Results reported in PubChem BioAssay AID560 (The Scripps Research Institute Molecular Screening Center, 2006).
# By UniProt entry, the sequences of proteins in these tests, tags left out. Where a name states a change or a piece, a line headed by the entry shows the natural chain unless it says otherwise.
# UniProt P35398: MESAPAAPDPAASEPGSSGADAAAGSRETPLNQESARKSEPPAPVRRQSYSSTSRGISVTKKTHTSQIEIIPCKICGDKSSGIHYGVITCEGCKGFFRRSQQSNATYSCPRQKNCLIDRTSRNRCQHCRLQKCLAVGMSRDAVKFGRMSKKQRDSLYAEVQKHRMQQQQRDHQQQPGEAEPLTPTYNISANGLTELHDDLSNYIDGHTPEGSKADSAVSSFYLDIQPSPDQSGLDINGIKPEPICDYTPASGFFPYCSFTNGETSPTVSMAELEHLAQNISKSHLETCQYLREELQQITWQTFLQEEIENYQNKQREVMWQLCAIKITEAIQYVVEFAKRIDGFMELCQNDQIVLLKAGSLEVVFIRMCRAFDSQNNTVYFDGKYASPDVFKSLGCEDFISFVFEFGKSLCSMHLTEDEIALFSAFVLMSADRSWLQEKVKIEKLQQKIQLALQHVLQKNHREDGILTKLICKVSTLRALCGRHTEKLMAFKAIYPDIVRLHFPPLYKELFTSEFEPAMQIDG
# This is a selection; strong and weak results do not stand in their true shares. Activity calls are given as the source filed them.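 Rule for the calls: active = activation above the mean of all tested compounds plus 3 SD (cut at about 49% in these data); inactive = the rest.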
# Target: Nuclear receptor ROR-alpha (Homo sapiens) (UniProt P35398)
# Assay: RORA ligand-binding domain transcriptional activation – cell-based, luminescence, primary screen (AID 560);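 note: 0% = DMSO-treated RORA cells and 100% = added signal equal to DMSO minus mock-transfected cells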
# Conditions: CHO-K1 Gal4-RORA LBD luciferase reporter, at 10 µM, active compounds read high, percent increase over mock-subtracted basal signal
row,SMILES,activation
1,O=C(OC1CN2CCC1CC2)c1cccc(Cl)c1 (stereo not given),inactive: 14.3%
2,c1nnnn1CCn1cnnn1,inactive: -11.1%
3,O=P(Nc1nccs1)(c1ccccc1)c1ccccc1,inactive: -22.8%
4,O=P1(Nc2nc3ccc(Cl)cc3s2)COc2ccccc2O1 (stereo not given),inactive: 10.9%
5,COC(=O)c1cc2c(s1)N=C(c1ccccc1)N(C)P2(=O)N1CCOCC1 (stereo not given),inactive: -28.1%
6,Cc1c2non([O-])c-2c(C)[n+](=O)[n+]1[O-],inactive: -25.5%
7,CCc1nc2c(n1)c1c(non1O)c1c2no[n+]1[O-],inactive: -26%
8,O=C(COc1ccccc1)OC1CN2CCC1CC2 (stereo not given),inactive: 28.6%
9,COP1(=S)c2c(C)nn(CCC#N)c2N=C(c2ccc(F)cc2)N1C (stereo not given),inactive: 4.8%
10,O=C(OC1CN2CCC1CC2)C12CC3CC(CC(C3)C1)C2 (stereo not given),inactive: 6.1%
11,O=P(Nc1nccs1)(c1ccccc1)c1nc2ccccc2s1 (stereo not given),inactive: -21.2%
12,CCOP1(=S)c2c(C)nn(CCC#N)c2N=C(c2ccccc2F)N1C (stereo not given),inactive: -2.9%
13,CCOP1(=S)c2c(C)nn(CCC#N)c2N=C(c2ccc(F)cc2)N1C (stereo not given),inactive: -14.8%
14,Cc1cccc(OCC(=O)OC2CN3CCC2CC3)c1 (stereo not given),inactive: -5.5%
15,Clc1n[nH]nc1-c1nn[nH][15n]1,inactive: -17.4%
16,O=P1(Nc2ccccn2)COc2ccccc2OC1,inactive: -7.5%
17,Cc1nn(-c2ccccc2)c2c1P(=O)(N1CCOCC1)N(C)C(c1ccccc1)=N2 (stereo not given),inactive: -4.2%
18,Cc1ccc(OCC(=O)OC2CN3CCC2CC3)cc1 (stereo not given),inactive: -11.9%
19,O=P1(Nc2ccc(Br)cn2)COc2ccccc2OC1,inactive: 9.5%
20,O=P1(Nc2ncccn2)COc2ccccc2OC1,inactive: -29.2%
